For assay [1], the system named is KB-V1 multidrug-resistant subclone of KB-3-1 (DSMZ ACC 149). The experiment in a line: cells. Conditions: Homo sapiens.
Assay [2] shares this test system.
Where [3] appears, read: KB-V1, read-out: IC50 KB-V1 w/o verapamil.
The mark [4] stands for this setting: KB-V1, read-out: IC50 KB-V1 w/verapamil.

Converted amounts (≈) assume the structure as drawn. Like-named read-outs stand apart in the source and are kept apart here.

For the compound `CC[C@H](C)[C@H](NC(=O)[C@H]1CCCCN1C)C(=O)N(COC(=O)CC(C)C)[C@H](C[C@@H](OC(C)=O)c1nc(C(=O)NC)cs1)C(C)C` [Analogue 4, 3-methyl-butyric acid ({1-[2-acetoxy-2-(4-methylcarbamoyl-thiazol-2-yl) -ethyl]-2-methyl-propyl}-{3-methyl-2-[(1-methyl-piperidine-2-carbonyl)-amino]pentanoyl}-amino)-methyl ester], the results for the IC50 in assay [1] (setting [3]) and in assay [1] (setting [4]) were 11 ng/mL (≈ 16.9 nM) and 0.18 ng/mL (≈ 0.276 nM), respectively. Moreover, the “Factor: quotient of the IC50 values of KB-V1 without verapamil and in presence of verapamil” value in assay [2] is on record as 61.

For `CC[C@H](C)[C@H](N=[N+]=[N-])C(=O)N(COC(=O)CC(C)C)[C@H](C[C@@H](OC(C)=O)c1nc(C(=O)N[C@@H](Cc2ccccc2)C[C@H](C)C(=O)O)cs1)C(C)C` [Analogue 8, 4-[(2-{1-acetoxy-3-[(2-azido-3-metlzyl-pentanoyl)-(3-methylbutyryloxymethyl)-amino]-4-methyl-pentyl}-thiazole-4-carbonyl)-amino]-2-methyl-5-phenyl-pentanoic acid], the IC50 in assay [1] (setting [3]) worked out at 150 ng/mL (≈ 206 nM); in assay [1] (setting [4]), 1.16 ng/mL (≈ 1.59 nM). Moreover, the “Factor: quotient of the IC50 values of KB-V1 without verapamil and in presence of verapamil” value in assay [2] stood at 129.

Turning to `CC[C@H](C)[C@H](NC(=O)[C@H]1CCCCN1C)C(=O)N(COC(=O)CC(C)C)[C@H](C[C@@H](OC(C)=O)c1nc(C(=O)NCCc2ccccc2)cs1)C(C)C` [Analogue 2, 3-methyl-butyric acid ({1-[2-acetoxy-2-(4-phenethylcarbamoylthiazol-2-yl)-ethyl]-2-methyl-propyl}-{3-methyl-2-[(1-methyl-piperidine-2-carbonyl)-amino]-pentanoyl}-amino)-methyl ester], the figures for the IC50 in assay [1] (setting [3]) and in assay [1] (setting [4]) were 13 ng/mL (≈ 17.5 nM) and 0.2 ng/mL (≈ 0.27 nM), respectively. Moreover, the “Factor: quotient of the IC50 values of KB-V1 without verapamil and in presence of verapamil” value in assay [2] is 65.

As to `CC[C@H](C)[C@H](NC(=O)[C@H]1CCCCN1C)C(=O)N(C)[C@H](C[C@@H](OC(C)=O)c1nc(C(=O)N[C@@H](Cc2ccccc2)C[C@H](C)C(=O)O)cs1)C(C)C` (stereo in doubt) [Analogue 10, 4-({2-[1-Acetoxy-4-methyl-3-(methyl-{3-methyl-2-[(1-methylpiperidine-2-carbonyl)-amino]-pentanoyl}-amino)-pentyl]-thiazole-4-carbonyl}-amino)-2-methyl-5-phenyl-pentanoic acid], the IC50 in assay [1] (setting [3]) came to 3.9 ng/mL (≈ 5.36 nM); in assay [1] (setting [4]), 0.023 ng/mL (≈ 0.0316 nM). For the same compound, the “Factor: quotient of the IC50 values of KB-V1 without verapamil and in presence of verapamil” value in assay [2] amounted to 170.

On to `CC[C@H](C)[C@H](NC(=O)[C@H]1CCCCN1C)C(=O)N(COC(=O)CC(C)C)[C@H](C[C@@H](OC(C)=O)c1nc(C(=O)N[C@@H](Cc2ccccc2)C[C@H](C)C(=O)O)cs1)C(C)C` [Analogue 1, Tubulysin D, reference compound], for which the “Factor: quotient of the IC50 values of KB-V1 without verapamil and in presence of verapamil” value in assay [2] (KB-V1) is reported as 9.

Values taken from US20110263650A1 (priority 2007, published 2011).
